Consider 1 compound from patent publication US11123341B2, “Butyrylcholinesterase inhibitors for treatment of opioid use disorder” (priority 2019, dated 2021).

The chains behind the UniProt entries cited, without tags or fusion partners. Residues count along the entry.
UniProt P35372, whole entry, looked up: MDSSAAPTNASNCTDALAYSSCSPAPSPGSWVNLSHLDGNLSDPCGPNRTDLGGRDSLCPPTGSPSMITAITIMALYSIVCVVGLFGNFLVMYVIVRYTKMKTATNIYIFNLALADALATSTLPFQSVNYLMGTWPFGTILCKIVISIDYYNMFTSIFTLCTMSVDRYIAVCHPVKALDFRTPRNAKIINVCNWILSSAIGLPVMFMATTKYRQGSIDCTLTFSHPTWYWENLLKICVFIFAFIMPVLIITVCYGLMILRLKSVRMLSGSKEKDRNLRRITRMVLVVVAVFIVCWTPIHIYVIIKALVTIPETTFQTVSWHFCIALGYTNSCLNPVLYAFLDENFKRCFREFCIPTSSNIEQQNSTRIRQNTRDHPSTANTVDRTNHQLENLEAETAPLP
UniProt P06276, 29-602 limits assumed: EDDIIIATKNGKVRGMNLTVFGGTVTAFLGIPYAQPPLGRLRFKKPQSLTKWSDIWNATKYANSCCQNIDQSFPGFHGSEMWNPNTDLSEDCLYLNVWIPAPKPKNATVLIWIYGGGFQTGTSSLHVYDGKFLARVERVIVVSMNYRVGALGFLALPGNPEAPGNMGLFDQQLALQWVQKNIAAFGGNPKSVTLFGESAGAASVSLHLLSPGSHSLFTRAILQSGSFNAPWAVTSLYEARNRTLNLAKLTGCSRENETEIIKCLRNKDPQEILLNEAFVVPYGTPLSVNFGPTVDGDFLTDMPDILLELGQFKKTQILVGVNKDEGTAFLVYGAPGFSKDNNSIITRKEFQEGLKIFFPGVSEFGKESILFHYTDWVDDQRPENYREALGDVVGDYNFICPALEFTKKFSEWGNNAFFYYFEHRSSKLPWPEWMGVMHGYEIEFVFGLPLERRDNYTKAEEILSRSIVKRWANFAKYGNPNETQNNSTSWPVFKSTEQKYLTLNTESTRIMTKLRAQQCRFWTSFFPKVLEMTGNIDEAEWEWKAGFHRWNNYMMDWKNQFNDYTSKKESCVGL

For data set [1] the following is noted: pharmacokinetic model, cited from earlier work.
For data set [2], the target named is μ-opiate receptors (Homo sapiens, UniProt P35372). As to conditions: qualitative comparison among heroin, 6-MAM and morphine; cited from earlier work.
For data set [3] the following is noted: heroin versus morphine; cited from earlier work.
Data set [4] has as its target BChE (Homo sapiens, UniProt P06276). Nature of the data set: Michaelis-Menten kinetic analysis of BChE-catalyzed hydrolysis of heroin (in vitro enzyme activity assay, RP-HPLC).

Consider `CC(=O)C1(O)CC=C2C[C@@H]3[C@@H]4C=C[C@@](O)(C(C)=O)[C@@H]5OC1=C2[C@@]54CCN3C` (stereo partly drawn), for which the “rate constant for heroin hydrolysis to 6-MAM” value in data set [1] (in blood/plasma) is 12.092 min⁻¹. Further, the “rate constant for direct heroin elimination” value in data set [1] was 13.757 min⁻¹. Besides, the “binding affinity with the μ-opiate receptors” value in data set [2] is recorded as “significantly lower than that of morphine”. The “toxicity relative to morphine” value in data set [3] is on record as “at least 10 fold”. Also, the “kcat for BChE-catalyzed hydrolysis of heroin” value in data set [4] (0.1 M phosphate buffer pH 7.4, 37° C., triplicate) stood at 30.67 s⁻¹. Further, the Km in data set [4] (read-out: KM for BChE-catalyzed hydrolysis of heroin, 0.1 M phosphate buffer pH 7.4, 37° C., triplicate) is 120 µM.
